This note sets out measurements from article PMC3328272, “HIV-1 Nef interaction influences the ATP-binding site of the Src-family kinase, Hck” (BMC Chemical Biology, 2012).

Chains of the proteins cited; added tags and fusions are not shown. Residues count along the entry.
UniProt P08103, 76-524 T331A/Q521E/Q522E/Q523I limits assumed: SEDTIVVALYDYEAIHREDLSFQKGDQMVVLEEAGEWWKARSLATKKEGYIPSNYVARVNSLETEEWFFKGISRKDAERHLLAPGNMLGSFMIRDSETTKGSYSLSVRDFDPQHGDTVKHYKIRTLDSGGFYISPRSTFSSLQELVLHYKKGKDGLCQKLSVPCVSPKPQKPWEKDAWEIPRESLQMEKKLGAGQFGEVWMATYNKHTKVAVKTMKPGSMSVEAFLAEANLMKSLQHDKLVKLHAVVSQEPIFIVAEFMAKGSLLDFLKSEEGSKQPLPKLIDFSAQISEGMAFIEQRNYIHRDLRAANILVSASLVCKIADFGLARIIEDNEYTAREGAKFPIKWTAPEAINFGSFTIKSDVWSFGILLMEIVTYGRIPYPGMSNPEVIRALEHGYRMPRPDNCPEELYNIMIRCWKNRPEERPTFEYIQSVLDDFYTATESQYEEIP
UniProt P08103, 76-524 E88T/A89S/I90P/H91F/R92P/E93W/T331A/Q521E/Q522E/Q523I: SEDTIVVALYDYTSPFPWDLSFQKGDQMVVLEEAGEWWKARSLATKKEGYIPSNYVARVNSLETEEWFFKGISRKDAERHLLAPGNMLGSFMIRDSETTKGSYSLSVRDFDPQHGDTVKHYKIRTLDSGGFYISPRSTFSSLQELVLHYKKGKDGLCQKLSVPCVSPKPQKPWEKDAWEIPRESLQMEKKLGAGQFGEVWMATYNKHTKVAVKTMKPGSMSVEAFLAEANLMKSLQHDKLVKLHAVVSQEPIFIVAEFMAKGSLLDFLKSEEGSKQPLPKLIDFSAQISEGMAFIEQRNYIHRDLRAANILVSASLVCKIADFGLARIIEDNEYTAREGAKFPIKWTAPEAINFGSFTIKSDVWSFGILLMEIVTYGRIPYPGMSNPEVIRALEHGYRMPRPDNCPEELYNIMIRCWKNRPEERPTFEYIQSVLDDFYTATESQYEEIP
UniProt P08103, 76-524 Q521E/Q522E/Q523I: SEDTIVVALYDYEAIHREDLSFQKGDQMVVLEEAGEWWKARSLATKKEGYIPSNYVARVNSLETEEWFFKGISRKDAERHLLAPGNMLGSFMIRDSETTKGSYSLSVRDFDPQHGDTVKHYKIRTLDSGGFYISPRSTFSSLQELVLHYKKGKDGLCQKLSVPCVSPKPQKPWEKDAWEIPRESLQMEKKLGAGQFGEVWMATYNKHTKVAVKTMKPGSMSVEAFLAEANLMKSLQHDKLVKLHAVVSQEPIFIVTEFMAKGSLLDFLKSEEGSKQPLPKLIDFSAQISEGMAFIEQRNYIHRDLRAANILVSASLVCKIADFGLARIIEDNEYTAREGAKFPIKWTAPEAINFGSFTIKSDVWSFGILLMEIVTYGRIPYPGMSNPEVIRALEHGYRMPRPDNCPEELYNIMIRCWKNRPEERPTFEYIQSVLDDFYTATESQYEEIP

Molecules are shown by their SMILES.

Common to all, as to assay type: biochemical
What all share (settings): ATP at twice the Km, read-out: IC50, NaPP1

The target of assay [1] is T1, mHck-TA (Mus musculus, UniProt P08103, Q521E/Q522E/Q523I/T331A).
T1 construct: the N-terminal unique domain was replaced with a hexahistidine tag; hexahistidine (N); made in house; host or cells: Sf9 insect cells (baculovirus)
In words: Z'-Lyte in vitro kinase assay, mHck-TA alone. Here is the method:
(§1) Protein-tyrosine kinase assays were performed using the FRET-based Z'-Lyte kinase assay kit and Tyr-2 peptide substrate according to the manufacturer's instructions (Life Technologies) and our previous work. All assays were performed in quadruplicate in low-volume, non-binding 384-well plates (Corning). To determine the Km for ATP, time course experiments were run at fixed concentrations of substrate (1 μM) and kinase in the presence of an ATP concentration range from 0 to 500 μM. The Km for ATP was then calculated from a plot of ATP concentration against initial reaction velocity followed by non-linear regression analysis (GraphPad Prism). For inhibition experiments, the assay was first optimized to determine the amount of kinase or kinase plus Nef (1:10 molar ratio) necessary to phosphorylate ~50% of the Tyr-2 peptide substrate in the presence of an ATP concentration equal to twice the Km. […] Fluorescence was assessed at an excitation wavelength of 400 nm; coumarin fluorescence and the fluorescein FRET signal were monitored at 445 and 520 nm, respectively. […] Raw fluorescence values were corrected for background, and reaction endpoints calculated as emission ratios of coumarin fluorescence divided by the fluorescein FRET signal. […] IC50 values were calculated using a sigmoidal curve fit using GraphPad Prism. […]

Assay [2] has as its target T2, mHck-TA-HART (Mus musculus, UniProt P08103, A89S/E88T/E93W/H91F/I90P/Q521E/Q522E/Q523I/R92P/T331A).
T2 construct: the N-terminal unique domain was replaced with a hexahistidine tag; hexahistidine (N); made in house; host or cells: Sf9 insect cells (baculovirus)
Kind of assay: Z'-Lyte in vitro kinase assay, mHck-TA-HART alone. Here is the method:
as §1

Assay [3] deals with T3, mHck (Mus musculus, UniProt P08103, Q521E/Q522E/Q523I).
T3 construct: the N-terminal unique domain was replaced with a hexahistidine tag; hexahistidine (N); made in house; host or cells: Sf9 insect cells (baculovirus)
In words: Z'-Lyte in vitro kinase assay, mHck alone. Here is the method:
as §1

Turning to `CC(C)(C)n1nc(-c2cccc3ccccc23)c2c(N)ncnc21` [NaPP1, reference compound], the IC50 (usually the midpoint of a concentration-inhibition curve) was 0.0533 ± 0.0082 µM in assay [1], 0.0085 ± 0.0007 µM in assay [2] and above 1 µM in assay [3].
